In one experiment the target is recombinant human MMP-13 (Homo sapiens, UniProt P45452). As to conditions: read-out: MMP-13 IC50; Inhibition Table B; tested form: TFA.
Another experiment has as its target recombinant human MMP-2 (Homo sapiens, UniProt P08253). The note with it: read-out: MMP-2 IC50; Inhibition Table B; tested form: TFA.
Another experiment has as its target recombinant human MMP-1 (Homo sapiens, UniProt P03956). As to conditions: read-out: MMP-1 IC50; Inhibition Table B; tested form: TFA.

Amino acid sequences for entries named in this document (tags omitted). Residues count along the entry.
UniProt P08253, 110-660 limits assumed: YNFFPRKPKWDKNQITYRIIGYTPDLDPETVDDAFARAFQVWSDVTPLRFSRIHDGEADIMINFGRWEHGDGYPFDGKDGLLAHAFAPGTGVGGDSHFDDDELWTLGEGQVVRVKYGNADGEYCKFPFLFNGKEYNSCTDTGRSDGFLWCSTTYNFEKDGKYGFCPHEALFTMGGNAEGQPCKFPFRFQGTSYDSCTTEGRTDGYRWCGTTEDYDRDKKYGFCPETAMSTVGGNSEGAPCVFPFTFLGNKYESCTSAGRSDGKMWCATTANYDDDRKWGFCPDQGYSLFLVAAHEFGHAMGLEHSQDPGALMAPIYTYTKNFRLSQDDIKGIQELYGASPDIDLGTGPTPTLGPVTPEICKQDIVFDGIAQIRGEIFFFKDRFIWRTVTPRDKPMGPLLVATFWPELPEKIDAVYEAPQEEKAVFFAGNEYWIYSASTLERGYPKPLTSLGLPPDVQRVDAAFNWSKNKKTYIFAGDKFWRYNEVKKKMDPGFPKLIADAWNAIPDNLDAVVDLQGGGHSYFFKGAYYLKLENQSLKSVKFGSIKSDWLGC
UniProt P03956, 100-469 limits assumed: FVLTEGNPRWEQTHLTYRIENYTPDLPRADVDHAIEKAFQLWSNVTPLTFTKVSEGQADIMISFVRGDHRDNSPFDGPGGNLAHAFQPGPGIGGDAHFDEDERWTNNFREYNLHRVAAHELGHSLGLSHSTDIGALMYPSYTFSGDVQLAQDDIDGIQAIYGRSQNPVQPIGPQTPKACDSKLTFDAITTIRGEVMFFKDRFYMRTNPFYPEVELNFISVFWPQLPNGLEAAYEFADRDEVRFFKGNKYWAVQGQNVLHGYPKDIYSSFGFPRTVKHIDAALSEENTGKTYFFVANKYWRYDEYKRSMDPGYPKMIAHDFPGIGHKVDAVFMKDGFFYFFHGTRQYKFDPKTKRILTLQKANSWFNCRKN

The pIC50 is −log10 of the IC50, conventionally taken in molar units.

pIC50: −log10 of the molar value. Bounds are passed on as bounds.

For `O=C(NO)C1(S(=O)(=O)c2ccc(-c3ccc(OCCN4CCCC4)cc3)cc2)CCOCC1`, the negative logarithm of the IC50 (pIC50) at recombinant human MMP-13 is above 9.00; on recombinant human MMP-2, above 9.00; at recombinant human MMP-1 it was below 5.00.

The record behind these values is patent US20010039287A1, “AROMATIC SULFONE HYDROXAMIC ACID METALLOPROTEASE INHIBITOR” (priority 1997, published 2001).
